Measured values taken from patent US20260297031A1, “HYDROXYLAMINE-BASED BCR-ABL1 INHIBITORS FOR TREATMENT OF CANCER” (University of Georgia Research Foundation, Inc., priority 2023, published 2026).

Amino acid sequences for entries named in this document (tags omitted).
UniProt P12931, whole entry: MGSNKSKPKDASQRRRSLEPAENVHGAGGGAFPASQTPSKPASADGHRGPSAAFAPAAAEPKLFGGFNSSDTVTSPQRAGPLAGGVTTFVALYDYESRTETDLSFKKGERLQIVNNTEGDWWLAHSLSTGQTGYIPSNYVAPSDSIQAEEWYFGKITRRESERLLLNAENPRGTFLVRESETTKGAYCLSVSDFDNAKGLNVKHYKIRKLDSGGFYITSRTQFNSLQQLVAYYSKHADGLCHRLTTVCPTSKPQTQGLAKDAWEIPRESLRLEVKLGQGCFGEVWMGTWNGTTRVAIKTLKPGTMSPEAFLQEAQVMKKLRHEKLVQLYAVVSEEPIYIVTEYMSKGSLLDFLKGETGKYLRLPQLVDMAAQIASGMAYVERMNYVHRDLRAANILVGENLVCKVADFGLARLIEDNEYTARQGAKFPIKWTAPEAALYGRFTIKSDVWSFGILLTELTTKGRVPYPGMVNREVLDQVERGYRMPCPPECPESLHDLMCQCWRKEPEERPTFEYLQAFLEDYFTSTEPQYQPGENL

Biological target: cSRC (Homo sapiens, UniProt P12931)
Assay: KinaseProfiler radiometric kinase assay, cSRC wt
Conditions: read-out: cSRC IC50, wt

Compound `COc1cc(Nc2c(C#N)cnc3cc(OCCON4CCN(C)CC4)c(OC)cc23)c(Cl)cc1Cl` [Compound 7, 4-((2,4-dichloro-5-methoxyphenyl)amino)-6-methoxy-7-(2-((4-methylpiperazin-1-yl)oxy)ethoxy)quinoline-3-carbonitrile] has a pIC50 of 8.70.

pIC50: −log10 of the molar value.
